Measured values taken from US20210196823A1, “Methods of Treating Metabolic Disease” (Pfizer Inc., priority 2018, published 2021).

Tests used:
[1] = system: biotinylated monoFC-muErfe; experiment: FRET assay: BMPs disrupting binding of cryptate-labelled anti-ERFE antibody 15.1 to biotinylated monoFC-muErfe; design: species or system murine; conditions: competing antigen 250 nM to 0.39 nM, Ab 15.1 15 nM, 3 hours room temperature
Experimental: (a) Investigation of the ability of BMPs to disrupt binding of cryptate-labelled anti-ERFE antibody to biotinylated murine ERFE: FRET assay was used to determine the ability of BMPs to disrupt binding between ERFE and a neutralising anti-ERFE antibody (Ab 15.1). The assay setup comprised streptavidin XL665 (cisbio assays) at a constant concentration of 1:1000 to be 50 ng per well, biotinylated monoFC-muErfe (9 μM) i.e. a monomeric FC murine ERFE fusion, cryptate labelled anti-ERFE antibody (Ab 15.1) at 15 nM. Each reaction well contained a total volume of 20 μl comprising: 5 μl streptavidin XL665, 5 μl Biotinylated monoFC-muErfe, 5 μl cryptate labelled anti-ERFE antibody 15.1, 5 μl competing antigen as a titration from 250 nM to 0.39 nM, all antigens at each concentration were assayed in duplicate. Reactions were left for 3 hours at room temperature and then […] at 665 nm and […] was read on the Envision. […] The assay was also conducted using a non-neutralising anti-ERFE antibody as a control.

[2] = system: HAMP-nanoluciferase fusion in HepG2 hepatoma cells; experiment: hepcidin transcriptional fusion reporter assay (nano-luc / nano-luciferase assay); assay type: cell-based; conditions: NanoLuc cells, serially diluted BMP, 24 h
Experimental: The was measured in-vitro using as follows: A hepcidin transcriptional fusion reporter assay (nano-luc or nano-luciferase assay) was developed to assess the effect of BMPs on hepcidin production in-vitro. A nanoluciferase reporter was inserted at the end of the coding sequence of the endogenous HAMP gene, in HepG2 hepatoma cells, creating a HAMP-nanoluciferase fusion. CRISPR-Cas9 was used to edit the cells with this knock-in reporter construct. A bovine Growth Hormone poly A was included after the nanoLuc to ensure proper mRNA processing. A Puromycin-TK expression cassette was also included 3′ of the nanoluc reporter to enrich for properly targeted clones. Clones that were homozygous for the HAMP-NanoLuc fusion were selected and tested for their response to BMPs and LDN(4-[6-[4-(1-Piperazinyl)phenyl]pyrazolo[1,5-a]pyrimidin-3-yl]quinoline dihydrochloride), a potent ALK2/3 BMP inhibitor, a schematic of the nano-luc construct is shown in FIG. 1B. The effect of representative BMPs (BMP, 2, 6, 9) on the Hamp-nanoLuc signal was assessed. Approximately 20,000 cells (cells split with trypsin/EDTA) were suspended in 200 uL of complete media (DMEM+10% serum+Na pyruvate) and were distributed into each well of 96-well plates and incubated for 24 hours at 37 C. […] Plates were read on Envision with Lum700 program following the manufacturer's instructions.

abdominal preadipocytes = experiment: Western blot of phospho- and total SMAD1/5/8 in preadipocytes; assay type: cell-based, Human; conditions: abdominal cells, BMP2, 30 minutes
Experimental: (§1) (a) Primary pre-adipocyte isolation. Human primary pre-adipocytes were prepared by isolation from white adipose tissue (WAT) biopsies taken under local anesthetic (1% lignocaine) by needle aspiration at the level of the umbilicus (ASAT) and from the upper-, outer-quadrant of the gluteal region (GSAT). Primary preadipocytes were isolated from ASAT and GSAT biopsies by mechanically mincing using scissors, washed twice with Hanks' buffered salt solution to remove contaminating blood, and then enzymatically digested in 1 mg/ml collagenase (Roche Applied Science) in Hanks' buffered salt solution in a shaking water bath (90 rpm) at 37° C. for 45 min. The digested tissue was centrifuged at 1000 rpm for 5 min at 4° C. The pellet containing stromal-vascular cells was resuspended in Dulbecco's modified Eagle's medium/F12 Ham's nutrient mixture (v/v, 1:1) containing 17.5 mM glucose and supplemented with 10% foetal calf serum, 0.25 ng/ml fibroblast growth factor, 2 mM glutamine, 100 units/ml penicillin and 100 μg/ml streptomycin. Cell stocks of APAD and GPAD cells were prepared and stored in liquid nitrogen for future studies. […]

gluteal preadipocytes = experiment: as above; assay type: cell-based, Human; conditions: gluteal cells, BMP2, 30 minutes
Experimental: as §1

competition with cryptate labelled anti-ERFE antibody for binding to biotinylated monoFC-muErfe [1]	Molecule	hepcidin expression (hepcidin-nanoluciferase fusion expression) [2]	SMAD1/5/8 phosphorylation (abdominal preadipocytes)	SMAD1/5/8 phosphorylation (gluteal preadipocytes)
measurable competition	BMP 2/6 heterodimer: heterodimer of BMP2 and BMP6			
	BMP2: bone morphogenetic protein 2 (R&D systems) (protein) QAKHKQRKRLKSSCKRHPLYVDFSDVGWNDWIVAPPGYHAFYCHGECPFPLADHLNSTNHAIVQTLVNSVNSKIPKACCVPTELSAISMLYLDENEKVVLKNYQDMVVEGCGCR	dose-dependent increase	increase	increase
